Laboratory results from US20130338130A1 (priority 2009, published 2013).

Assay: Water solubility of MSM
Type: physicochemical
Conditions: room temperature
Source text: MSM is structurally related to dimethyl sulfoxide (DMSO), but the behavior of these two is different. […] MSM is well known as a nutritional supplement and as a pharmaceutical agent (see, e.g., Jacob and Appleton, MSM; the definitive guide: A comprehensive review of the science and therapeutics of Methylsulfonylmethane, Topanga, Calif.: […] Altern. Complement. […] One of skill in the relevant art will be familiar with these uses. Various grades of MSM are available commercially (for example, OptiMSM® sold by Bergstrom Nutrition, Corp., Vancouver, Wash.); one of skill in the art will be familiar with a source of MSM. MSM is highly water soluble.

For `CS(C)(=O)=O` [MSM, Methylsulfonylmethane], the “aqueous solutions that can be prepared easily” value was 20%.
